## Binding of CDR-mutated scFvs to a peptide of the spike HR2 region

From the AlphaSeq antibody data of Li et al. 2023 (doi:10.1038/s41467-023-39022-2), copy in the FLAb collection.

Binding partner: SARS-CoV-2 spike HR2 peptide, sequence PDVDLGDISGINAS.

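The starting antibody came from a phage panning campaign against this peptide. These sequences belong to a second round, designed from the earlier measurements on random variants of the parent. Their group label is 14L_Ctrl (Ctrl: baseline library sampled from a position-specific scoring matrix, with some repeated check sequences). The assay is AlphaSeq: two haploid yeast populations carry antibody and antigen on their surface. Pairs that bind mate more often; barcode pairs of the diploids are counted by sequencing. A regression on co-assayed BCL2-family reference pairs converts the normalised counts of each replicate to an apparent Kd. There are six technical replicates.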

Ab-14 is the parent antibody, in scFv form: VH, then the linker GGGGSGGGGSGGGGS, then VL. The heavy chain is unchanged in all variants.
VH: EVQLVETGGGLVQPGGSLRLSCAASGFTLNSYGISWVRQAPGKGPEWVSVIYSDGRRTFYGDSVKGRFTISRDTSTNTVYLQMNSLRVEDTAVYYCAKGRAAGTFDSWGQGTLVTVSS
VL: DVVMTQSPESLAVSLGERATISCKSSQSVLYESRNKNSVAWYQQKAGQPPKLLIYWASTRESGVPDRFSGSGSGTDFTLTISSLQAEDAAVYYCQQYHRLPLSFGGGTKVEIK

Variants are written as CDR1, CDR2 and CDR3 of the light chain (limits as in the source). Parent: KSSQSVLYESRNKNSVA, WASTRES, QQYHRLPLS.
The read-out is the apparent dissociation constant on a log10 scale (nM): the lower, the stronger.
A mean of the replicates is given; it leaves out those without a signal.
A pair that was not seen in that replicate is written "ND"; this usually means weak binding, but a binder can also be missed.
The parent sequence was in this pool as ten entries: three were never detected, three once, and four in most replicates, with averages from 0.34 to 2.37.
Values of this round are not directly comparable with the first-round values of the same sequences.
The authors averaged sequences with at least three values out of six and counted those with two or fewer as poor binders.
As a blank, each scFv also met three strains without target: over all light chain designs, 4% of these pairings were detected, typically at 2.64 and seldom below 1.59. For each scFv, signals with the empty controls are counted beside the result, with their mean in brackets.

| # | CDR-L1 | CDR-L2 | CDR-L3 | log10 Kd (nM) by replicate | log10 Kd (nM), mean | signal with controls |
|---|---|---|---|---|---|---|
| 1 | KSCQSVLYESDNKNSVA | WASTRES | FQYERQPLS | ND ND ND ND ND ND | ND | 0 of 18 |
| 2 | KLSQSVLTESRNKNSVA | WASTRES | QQYHRLPLS | 0.35 0.34 0.24 0.22 0.28 0.29 | 0.29 | 2 of 18 (3.50) |
| 3 | KSSQSVLYNSTNKNSVA | WASTRES | QQYHRLPLS | 1.93 2.39 ND 2.16 2.90 3.54 | 2.59 | 2 of 18 (2.84) |
| 4 | KLYQSVLSESRNKNSVA | WASTRES | QQYHRLPLD | ND ND ND ND ND ND | ND | 1 of 18 (2.54) |
| 5 | KWSQSHSYESRNKNSVA | WASTRES | QQYHRLPLW | ND ND 1.85 ND ND ND | 1.85 | 0 of 18 |
| 6 | KVSQSVPAESKNKNSVA | WASTRES | QQYHELPLS | 1.04 1.36 0.95 0.77 1.11 1.35 | 1.10 | 1 of 18 (2.35) |
| 7 | KSSQSVLYESRNKNSVA | GASTPES | QQYHRLPLS | 0.66 0.04 0.35 0.25 0.30 0.30 | 0.32 | 1 of 18 (2.41) |
| 8 | KLSQSVLYEARNKNSVA | WASTRES | QQYHRLPLS | 1.44 1.11 1.42 1.15 1.49 1.40 | 1.34 | 1 of 18 (2.90) |
| 9 | KSSDSVLYESRGKNSVA | WASTRES | QQGHRLPLS | 1.72 ND 2.79 ND ND ND | 2.26 | 0 of 18 |
| 10 | KSSQSVLYESRNKNSVA | DASTREA | QQYHRLPFS | 0.65 0.72 1.02 0.97 0.70 1.21 | 0.88 | 1 of 18 (2.69) |
| 11 | KQIQSVLYESRNKNSVA | WASTRES | QQYHRLPLS | ND ND ND ND ND ND | ND | 1 of 18 (1.54) |
| 12 | KSSQMLLYESRNKNSVA | WASTRES | QQYHGLPLS | ND ND ND ND ND ND | ND | 1 of 18 (1.67) |
| 13 | KSSQSVLYESNNKNSVA | WGSTRES | QQYHRLPLS | 0.61 0.75 0.48 0.67 0.83 0.81 | 0.69 | 2 of 18 (2.63) |
| 14 | KSEQSVLFESRNHNSVA | GAGTREW | QQYARLPLS | 0.53 0.36 0.02 0.02 -0.15 0.23 | 0.17 | 0 of 18 |
| 15 | DSSQSVLYESRNKNSVA | DASTRES | QQYHRFPPS | ND ND ND ND ND ND | ND | 0 of 18 |
| 16 | KNSQSVLYESRNKNSVA | RASTRES | QQYHRLPLS | 2.05 3.15 1.66 2.56 2.20 1.92 | 2.26 | 1 of 18 (2.94) |
| 17 | KSSQSVLYESLNKTSVA | WGSTRES | QQYHRLPLS | 2.03 2.59 0.72 2.72 1.62 1.61 | 1.88 | 0 of 18 |
| 18 | KSEQSVEYESRNCNGVA | WASTRES | QQYHRLPLF | 3.53 ND ND ND ND ND | 3.53 | 3 of 18 (2.23) |
| 19 | KMSQSVLAMSRNKNSVA | EASTRES | QQYHRLPLS | -0.45 -0.71 -0.54 -0.80 -0.67 -0.70 | -0.64 | 0 of 18 |
| 20 | KSSQSVLPESRHKNSVA | WASTRES | QQYHRLPLS | ND ND ND 2.57 ND ND | 2.57 | 0 of 18 |
| 21 | KSSMSVLYESRNLNSVA | AASTRES | QQYHRLPLS | 1.16 0.20 0.51 ND 0.88 0.99 | 0.75 | 0 of 18 |
| 22 | KSSQSVLYESRNKNSVA | WAKTRES | QQYARLPLK | 2.34 1.42 1.01 0.32 1.29 ND | 1.28 | 0 of 18 |
| 23 | KSSLSVLNESRNKNSVA | KASIRER | QQYARLPLS | 1.54 1.19 1.16 1.13 1.23 1.43 | 1.28 | 1 of 18 (2.58) |
| 24 | KSSVPVLYESRNKNSVA | WASTRES | QQYHRLPLS | 1.61 1.38 ND 1.26 2.24 1.95 | 1.69 | 0 of 18 |
| 25 | KSSQSVEYESRAKNSVA | WASTRES | QQYHRLPLS | ND ND 2.14 ND ND ND | 2.14 | 0 of 18 |
| 26 | KSSQSELYESRNKNSVA | WASTRES | QQEHRLPLS | ND ND ND ND ND ND | ND | 0 of 18 |
| 27 | KSSQSVLYESRNKNSVA | WARTRMS | QQYHRLPLS | 2.03 ND 2.14 ND ND ND | 2.08 | 0 of 18 |
| 28 | MSSQSVLYESREKNSVA | QASTRES | QQYHRLNLA | ND ND ND ND ND ND | ND | 0 of 18 |
| 29 | KCSQSNLYESRNKNSVA | WASTRES | QQVHRLPLM | 1.81 1.59 ND 2.02 1.00 2.20 | 1.72 | 0 of 18 |
| 30 | KSSQSVVYESREKNSVA | GASTRED | QQYHRLPLS | 0.13 0.03 -0.01 0.06 0.04 0.23 | 0.08 | 1 of 18 (2.42) |
| 31 | KSSQSDLNESRNKNSVA | WASTRES | QQYDRLPLE | 2.05 ND 1.99 1.94 2.34 2.85 | 2.23 | 0 of 18 |
| 32 | KSSQSVEIESGNTNSVA | WASLRES | QQYFRLPLS | ND ND ND 1.11 ND 2.01 | 1.56 | 0 of 18 |
| 33 | KSGQSVLYESRNKNSVA | AASTRES | QQYHRLPLS | 0.92 0.97 0.79 0.88 0.76 0.83 | 0.86 | 2 of 18 (3.35) |
| 34 | KSSQTVLNESRNKNSVA | WASTRES | QQYHRLPLS | 0.30 0.28 0.24 -0.01 0.17 -0.01 | 0.16 | 0 of 18 |
| 35 | KSSQSVLYESRNSNSVA | WASTRES | QQYHRLPES | ND ND ND ND ND ND | ND | 0 of 18 |
| 36 | KSSQLVLYESRNKNSVA | DASTREP | QQYHLLPLS | 0.43 0.96 0.91 0.43 0.71 0.78 | 0.70 | 0 of 18 |
| 37 | KSSQSVLYESRDKNSVA | WASTRES | QQIHRLPLS | ND ND ND ND ND ND | ND | 0 of 18 |
| 38 | KSSQSQLYESPNKNSVA | WASTRES | FQYHRLPLS | ND 1.96 3.53 ND ND 1.85 | 2.45 | 1 of 18 (1.78) |
| 39 | KSSMLVLYESRNKNSVA | YASTREW | QQYHRLPLS | ND ND ND ND ND ND | ND | 0 of 18 |
| 40 | KSSQSVLYESRNSNSVA | WASTRES | QGYHRLPLS | ND ND ND 1.82 ND ND | 1.82 | 0 of 18 |
| 41 | KSSQDVLYESRNKNGLA | DASTCES | QQYHRLPLS | 0.36 0.56 0.85 0.63 0.38 0.27 | 0.51 | 0 of 18 |
| 42 | SSPQSVLQESENKNSVA | WASTREQ | QQYHRLPCS | ND ND ND ND ND ND | ND | 0 of 18 |
| 43 | KSSHSPLYESRQKNSVA | DASTRES | QQYHRLPLS | -0.07 -0.21 -0.40 -0.25 -0.31 -0.11 | -0.22 | 3 of 18 (3.10) |
| 44 | KSSQSVVYEQGNKNSVA | DASTRES | QQVHRLPLS | ND ND 2.13 3.09 2.43 2.41 | 2.52 | 0 of 18 |
| 45 | KVSVSQLYESRNKNSVA | WASTRES | QQYHRLPLS | 1.00 1.39 0.68 1.05 1.39 0.72 | 1.04 | 0 of 18 |
| 46 | KMSQSVLDESRNKNSVA | WASTRES | QQYRRLPLS | 1.43 1.45 1.22 0.70 0.87 0.81 | 1.08 | 1 of 18 (2.25) |
| 47 | KSSQSVLIESRNKNSVA | WASTREE | QQTHRLPLS | ND ND ND ND ND ND | ND | 0 of 18 |